For 1 molecule, inhibition results are on record in ChEMBL document CHEMBL3600322, “Phenoxymethyl 1,3-oxazoles and 1,2,4-oxadiazoles as potent and selective agonists of free fatty acid receptor 1 (GPR40)” (Bioorg Med Chem Lett, 2015).

Chains of the proteins cited; added tags and fusions are not shown.
UniProt P05177, whole entry: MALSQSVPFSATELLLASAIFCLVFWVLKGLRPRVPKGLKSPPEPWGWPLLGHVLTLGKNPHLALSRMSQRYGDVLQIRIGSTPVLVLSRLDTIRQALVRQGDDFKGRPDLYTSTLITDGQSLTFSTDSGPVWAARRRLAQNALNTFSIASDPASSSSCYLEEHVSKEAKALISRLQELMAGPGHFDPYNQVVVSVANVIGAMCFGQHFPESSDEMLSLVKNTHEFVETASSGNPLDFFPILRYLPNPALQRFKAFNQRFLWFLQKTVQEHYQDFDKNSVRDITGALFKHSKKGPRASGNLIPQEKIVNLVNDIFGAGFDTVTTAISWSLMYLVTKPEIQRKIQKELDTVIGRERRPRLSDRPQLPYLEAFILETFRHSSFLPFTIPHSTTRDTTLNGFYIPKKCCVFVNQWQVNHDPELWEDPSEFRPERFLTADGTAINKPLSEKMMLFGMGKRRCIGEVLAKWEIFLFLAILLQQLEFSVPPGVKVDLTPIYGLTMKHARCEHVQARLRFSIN

For the series, the target named is CYP1A2 (Homo sapiens, UniProt P05177). Nature of the series: in vitro.

For orientation: inhibition means how much of the control response was suppressed. A lower inhibition goes with a weak effect.

In turn, `O=c1cc(-c2ccccc2)oc2c1ccc1ccccc12` [ALPHA-NAPHTHOFLAVONE] returned an inhibition at 4 µM of 99.2%.
